# Yeast mating assay 2: variants of the scFv Ab-91

Data: MIT Lincoln Laboratory AlphaSeq set, Engelhart et al. 2022, doi:10.1038/s41597-022-01779-4, as distributed in FLAb.

Antigen: PDVDLGDISGINAS, a 14-residue peptide of the SARS-CoV-2 spike HR2 region.

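The parent was found by panning a naive human phage display library on the peptide. The library (AAYL51) carries one to three amino acid substitutions per variant, with no insertions or deletions. Affinity was read by AlphaSeq, a pooled yeast mating assay with surface-displayed partners. Binding brings cells together so that they mate, and sequencing counts the barcode pairs among the diploids. Read counts were normalised to the haploid input and turned into Kd by a linear fit to BCL2-family pairs of known affinity, for each replicate. There are three technical replicates.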

Parent: Ab-91, a human scFv built as VL, a (GGGGS)3 linker, VH. Only the CDRs of the heavy chain vary.
VL: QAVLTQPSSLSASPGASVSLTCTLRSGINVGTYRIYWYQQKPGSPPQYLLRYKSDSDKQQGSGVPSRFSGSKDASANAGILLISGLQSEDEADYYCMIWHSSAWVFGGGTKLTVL
VH: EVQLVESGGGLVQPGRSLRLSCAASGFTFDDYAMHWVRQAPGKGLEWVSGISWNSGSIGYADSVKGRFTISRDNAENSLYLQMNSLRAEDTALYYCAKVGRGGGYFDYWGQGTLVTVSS

Substitutions are numbered in sequence along the VH above, starting at 1 (not Kabat).
This list gathers variants with a substitution at D31 (VH, numbered from residue 1).
Kd is apparent (estimated from mating counts) and averaged on the log scale over replicates with a signal. Smaller is tighter.
An entry "nd" has no value in the source: the pair was not observed among the diploids in any replicate. This suggests poor binding but is not conclusive.
As a blank, each scFv also met three strains without target: over library AAYL51, 21% of these pairings were detected, typically at 34 µM and seldom below 1.8 µM. Also given: how often the same scFv was detected with the empty control strains.
In this assay the parent's reference entry averaged 72 nM; its copy inside this library read 7.5 nM.

The variant D31V A33H V64E gave nd (0 of 3 replicates; controls 0 of 9). For D31C A61G, the assay gave 110 nM (3 of 3 replicates; controls 0 of 9). For D31S, the assay gave 14 nM (3 of 3 replicates; controls 2 of 9). With D31I I51V Y105T the result was nd (0 of 3 replicates; controls 2 of 9). The variant D31W M34D G50C showed nd (0 of 3 replicates; controls 2 of 9). The variant D31E Y32T Y105L gave 8.1 µM (1 of 3 replicates; controls 1 of 9). For D31S Y32T A61C, the assay gave 9.1 nM (3 of 3 replicates; controls 2 of 9). The variant D31K Y60M G104M showed nd (0 of 3 replicates; controls 0 of 9). With F27T F29H D31V the result was nd (0 of 3 replicates; controls 0 of 9).

For D31G G56Y G100W, the assay gave 16 µM (2 of 3 replicates; controls 3 of 9). The variant D31N M34H S55N gave 66 µM (2 of 3 replicates; controls 3 of 9). The variant D31K M34N S57W showed 320 µM (2 of 3 replicates; controls 4 of 9). For D31A G103K Y105F, the assay gave 1.9 µM (2 of 3 replicates; controls 2 of 9). With D31C G102N the result was 3.2 µM (1 of 3 replicates; controls 1 of 9). The variant G26Q D31I gave nd (0 of 3 replicates; controls 0 of 9). With F29K D31K W53N the result was nd (0 of 3 replicates; controls 0 of 9). With D31E I58W S63C the result was 220 nM (3 of 3 replicates; controls 2 of 9). The variant D31V I51V S63I showed nd (0 of 3 replicates; controls 2 of 9).

The variant D31Y M34Q G102Y showed nd (0 of 3 replicates; controls 0 of 9). For D31H A61C D107R, the assay gave nd (0 of 3 replicates; controls 3 of 9). The variant D30L D31E G50A showed nd (0 of 3 replicates; controls 0 of 9). For D31E V64L Y105I, the assay gave nd (0 of 3 replicates; controls 1 of 9). With T28A D31P N54G the result was 12 µM (2 of 3 replicates; controls 0 of 9). With F27M T28M D31V the result was 16 µM (3 of 3 replicates; controls 6 of 9). With F27H F29R D31N the result was 15 nM (3 of 3 replicates; controls 8 of 9). The variant D31I M34H G100R gave nd (0 of 3 replicates; controls 0 of 9). The variant D31E G100F D107Y showed 5.6 nM (3 of 3 replicates; controls 6 of 9).

The variant D31L G59Q Y108A showed nd (0 of 3 replicates; controls 1 of 9). For D31L F106G D107L, the assay gave 16 µM (2 of 3 replicates; controls 3 of 9). The variant D31N K65G Y108Q gave 59 nM (3 of 3 replicates; controls 1 of 9). For D31Y A33W A61Y, the assay gave 6.2 µM (1 of 3 replicates; controls 0 of 9). With D31A N54L R101N the result was 13 µM (1 of 3 replicates; controls 0 of 9). With T28D D31H H35W the result was nd (0 of 3 replicates; controls 2 of 9). The variant D31F I58R D107T showed 3.8 nM (3 of 3 replicates; controls 1 of 9). The variant D31R W53L Y105N showed 52 nM (3 of 3 replicates; controls 6 of 9). The variant D31A W53A V64E showed 1.5 µM (1 of 3 replicates; controls 0 of 9).

The variant D31H W53I N54H gave 2.6 µM (3 of 3 replicates; controls 7 of 9). With D31P W53L Y108D the result was 1.4 µM (1 of 3 replicates; controls 2 of 9). The variant F29I D31Y G102R gave 12 µM (1 of 3 replicates; controls 0 of 9). The variant D31V H35A V99Q gave nd (0 of 3 replicates; controls 0 of 9). With D31S W53L I58V the result was 140 µM (2 of 3 replicates; controls 2 of 9). For D31Y I58M K65E, the assay gave nd (0 of 3 replicates; controls 1 of 9).

Extract of 6 entries:

| changes | Kd (apparent) | seen in | empty controls |
|---|---|---|---|
| D31F I58R D107T | 3.8 nM | 3/3 | 1/9 |
| D31A G103K Y105F | 1.9 µM | 2/3 | 2/9 |
| D31A W53A V64E | 1.5 µM | 1/3 | 0/9 |
| F27H F29R D31N | 15 nM | 3/3 | 8/9 |
| D31N M34H S55N | 66 µM | 2/3 | 3/9 |
| D31C G102N | 3.2 µM | 1/3 | 1/9 |